Literature values as cited in publication PMC7781173 (Amino Acids, 2021).

Test system: C5
Conditions: background statement, reference not given; cited from earlier work

## eculizumab: already approved therapeutic for paroxysmal nocturnal hemoglobinuria, atypical hemolytic uremic syndrome, neuromyelitis optica and MG
  C5 cleavage: inhibit C5 cleavage
